Source: patent US20240043618A1, “ANTIMICROBIAL COMPOSITIONS” (priority 2021, published 2024)

Test system: Vero E6 cells

Substance | Toxicity (highest dilution of the endpoint titer where full (80-100%) cytotoxicity was observed)
polyethyleneimine-hydrogen chloride [PEI-HCl] | 1/100
betainized polyethyleneimine-boric acid [B-PEI-BA] | None
polyethyleneimine-boric acid [PEI-BA] | 1/100
betainized polyethyleneimine-hydrogen chloride [B-PEI-HCl] | None
polyethyleneimine-citric acid [PEI-CA] | 1/100
betainized polyethyleneimine-citric acid [B-PEI-CA] | None
